From ChEMBL document CHEMBL5131394, “Structure-activity and mechanistic studies of non-peptidic inhibitors of the PLK1 polo box domain identified through REPLACE” (Eur J Med Chem, 2022)

How the values were obtained:
Format in all cases: functional
[1] = Downregulation of Aurora kinase A in serum starved human PC-3 cell assessed as fold change in Aurora kinase A gene expression at 15 uM and measured after 24 hrs by NanoDrop spectophotometry relative to control
[2] = Downregulation of cdc27 in serum starved human PC-3 cell assessed as fold change in cdc27 gene expression at 15 uM and measured after 24 hrs by NanoDrop spectophotometry relative to control
[3] = Downregulation of histone H2BM in serum starved human PC-3 cell assessed as fold change in histone H2BM gene expression at 15 uM and measured after 24 hrs by NanoDrop spectophotometry relative to control
[4] = Downregulation of cdc20 in serum starved human PC-3 cell assessed as fold change in cdc20 gene expression at 15 uM and measured after 24 hrs by NanoDrop spectophotometry relative to control
[5] = Downregulation of cdcA2 in serum starved human PC-3 cell assessed as fold change in cdcA2 gene expression at 15 uM and measured after 24 hrs by NanoDrop spectophotometry relative to control
[6] = Downregulation of cdcA3 in serum starved human PC-3 cell assessed as fold change in cdcA3 gene expression at 15 uM and measured after 24 hrs by NanoDrop spectophotometry relative to control
[7] = Downregulation of cyclin B1 in serum starved human PC-3 cell assessed as fold change in cyclin B1 gene expression at 15 uM and measured after 24 hrs by NanoDrop spectophotometry relative to control
[8] = Downregulation of PLK1 in serum starved human PC-3 cell assessed as fold change in PLK1 gene expression at 15 uM and measured after 24 hrs by NanoDrop spectophotometry relative to control

CCCCCCCCc1ccc(C(=O)Nc2ccc(C)cc2C(=O)O)cc1
fold change (FC) [1]: 2.53
fold change (FC) [2]: 2.05
fold change (FC) [3]: 4.16
fold change (FC) [4]: 2.14
fold change (FC) [5]: 1.6
fold change (FC) [6]: 2.73
fold change (FC) [7]: 2.34
fold change (FC) [8]: 1.86
